Biological target: GABA-A receptor; alpha-6/beta-3/gamma-2 (Homo sapiens, UniProt P18507+P28472+Q16445)
Assay: Binding affinity for human recombinant gamma-aminobutyric-acid (GABA) A receptor alpha-6-beta-3-gamma-2
Format: protein-complex assay

Chains of the proteins cited; added tags and fusions are not shown. Lines headed by an entry give the natural chain unless they say otherwise; changes in a name come on top.
UniProt P18507: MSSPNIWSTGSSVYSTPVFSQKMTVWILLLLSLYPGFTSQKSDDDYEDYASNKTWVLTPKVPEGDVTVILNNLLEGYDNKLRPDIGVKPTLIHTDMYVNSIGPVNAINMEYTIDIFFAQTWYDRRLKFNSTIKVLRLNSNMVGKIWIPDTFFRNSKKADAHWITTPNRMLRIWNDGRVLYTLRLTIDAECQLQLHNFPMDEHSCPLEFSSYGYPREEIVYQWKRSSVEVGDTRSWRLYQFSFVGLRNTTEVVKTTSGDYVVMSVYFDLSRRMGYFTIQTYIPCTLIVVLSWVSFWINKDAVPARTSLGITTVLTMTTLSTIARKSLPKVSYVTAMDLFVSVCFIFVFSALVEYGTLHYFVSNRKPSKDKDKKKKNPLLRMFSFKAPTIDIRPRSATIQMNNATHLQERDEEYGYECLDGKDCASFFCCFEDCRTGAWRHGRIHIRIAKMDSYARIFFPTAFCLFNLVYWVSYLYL
UniProt P28472: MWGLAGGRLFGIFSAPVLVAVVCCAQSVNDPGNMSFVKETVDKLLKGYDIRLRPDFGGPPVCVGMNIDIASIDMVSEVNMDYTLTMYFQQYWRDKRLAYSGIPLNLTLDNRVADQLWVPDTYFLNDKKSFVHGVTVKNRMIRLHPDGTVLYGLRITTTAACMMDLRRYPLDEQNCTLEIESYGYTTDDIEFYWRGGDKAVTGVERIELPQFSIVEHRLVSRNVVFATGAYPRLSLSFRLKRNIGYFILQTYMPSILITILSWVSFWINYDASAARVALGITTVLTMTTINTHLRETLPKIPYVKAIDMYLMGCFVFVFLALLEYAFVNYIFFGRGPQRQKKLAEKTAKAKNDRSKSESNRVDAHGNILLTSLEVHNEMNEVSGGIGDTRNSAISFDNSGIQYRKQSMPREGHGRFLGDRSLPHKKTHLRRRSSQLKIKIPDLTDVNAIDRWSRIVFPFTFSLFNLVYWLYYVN
UniProt Q16445, whole entry: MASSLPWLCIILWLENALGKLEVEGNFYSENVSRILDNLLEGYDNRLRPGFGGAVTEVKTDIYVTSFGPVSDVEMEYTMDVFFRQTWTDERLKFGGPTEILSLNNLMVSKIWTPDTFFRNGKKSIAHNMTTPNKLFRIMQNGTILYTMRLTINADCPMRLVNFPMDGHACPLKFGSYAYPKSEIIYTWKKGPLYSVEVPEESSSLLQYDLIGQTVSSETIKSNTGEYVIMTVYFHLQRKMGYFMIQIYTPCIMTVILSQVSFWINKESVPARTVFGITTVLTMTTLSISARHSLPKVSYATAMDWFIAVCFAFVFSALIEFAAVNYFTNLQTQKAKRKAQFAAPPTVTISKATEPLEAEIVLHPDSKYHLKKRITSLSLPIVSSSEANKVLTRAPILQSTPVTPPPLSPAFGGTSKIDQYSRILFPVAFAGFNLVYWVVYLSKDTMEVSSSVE

With `CCOC(=O)c1cc2c(cn1)[nH]c1ccccc12` the Ki was 2700 nM.

Reference: ChEMBL document CHEMBL1132940, “Pharmacophore/receptor models for GABA(A)/BzR subtypes (alpha1beta3gamma2, alpha5beta3gamma2, and alpha6beta3gamma2) via a comprehensive ligand-mapping approach” (J Med Chem, 2000)
